In this assay the target is yeast H3-H4 (yeast). Kind of assay: native gel or EMSA.

B1: full-length FACT (Spt16-Pob3 heterodimer) (complex, S. cerevisiae)
chain 1: MEELNIDFDVFKKRIELLYSKYNEFEGSPNSLLFVLGSSNAENPYQKTTILHNWLLSYEFPATLIALVPGKVIIITSSAKAKHLQKAIDLFKDPESKITLELWQRNNKEPELNKKLFDDVIALINSAGKTVGIPEKDSYQGKFMTEWNPVWEAAVKENEFNVIDISLGLSKVWEVKDVNEQAFLSVSSKGSDKFMDLLSNEMVRAVDEELKITNAKLSDKIENKIDDVKFLKQLSPDLSALCPPNYKFNFDLLDWTYSPIIQSGKKFDLRVSARSTNDQLYGNGCILASCGIRYNNYCSNITRTFLIDPSEEMANNYDFLLTLQKEIVTNILKPGRTPKEVYESVIEYIEKTKPELVPNFTKNIGSLIGLEFRDSNFILNVKNDYRKIQRGDCFNISFGFNNLKDSQSANNYALQLADTVQIPLDETEPPRFLTNYTKAKSQISFYFNNEEEDNNKKKSSPATKVPSKPDRNSKILRTKLRGEARGGAEDAQKEQIRKENQKKLHEKLEKNGLLRFSAADANGPDSEPRQYFKKYESYVRDSQLPTNIRDLRIHVDWKSQTIILPIYGRPVPFHINSYKNGSKNEEGEYTYLRLNFNSPGSSGGISKKVEELPYEESADNQFVRSITLRSKDGDRMSETFKQIADLKKEATKREQERKALADVVQQDKLIENKTGRTKRLDQIFVRPNPDTKRVPSTVFIHENGIRFQSPLRTDSRIDILFSNIKNLIFQSCKGELIVVIHIHLKNPILMGKKKIQDVQFYREASDMSVDETGGGRRGQSRFRRYGDEDELEQEQEERRKRAALDKEFKYFADAIAEASNGLLTVENTFRDLGFQGVPNRSAVFCMPTTDCLVQLIEPPFLVINLEEVEICILERVQFGLKNFDMVFVYKDFNKPVTHINTVPIESLDFLKQWLTDMDIPYTVSTINLNWATIMKSLQDDPYQFFLDGGWNFLATGSDDEASDESEEEVSEYEASEDDVSDESAFSEDEEGSEVDDDISGDESEDYTGDESEEGEDWDELEKKAARADRGANFRD
chain 2: MSTDFDRIYLNQSKFSGRFRIADSGLGWKISTSGGSAANQARKPFLLPATELSTVQWSRGCRGYDLKINTKNQGVIQLDGFSQDDYNLIKNDFHRRFNIQVEQREHSLRGWNWGKTDLARNEMVFALNGKPTFEIPYARINNTNLTSKNEVGIEFNIQDEEYQPAGDELVEMRFYIPGVIQTNVDENMTKKEESSNEVVPKKEDGAEGEDVQMAVEEKSMAEAFYEELKEKADIGEVAGDAIVSFQDVFFTTPRGRYDIDIYKNSIRLRGKTYEYKLQHRQIQRIVSLPKADDIHHLLVLAIEPPLRQGQTTYPFLVLQFQKDEETEVQLNLEDEDYEENYKDKLKKQYDAKTHIVLSHVLKGLTDRRVIVPGEYKSKYDQCAVSCSFKANEGYLYPLDNAFFFLTKPTLYIPFSDVSMVNISRAGQTSTSSRTFDLEVVLRSNRGSTTFANISKEEQQLLEQFLKSKNLRVKNEDREVQERLQTALGSDSDEEDINMGSAGEDDESVDEDFQVSSDNDADEVAEEFDSDAALSDAEGGSDEERPSKKPKVE
With B1, the binding result is recorded as “binds”.

The values are drawn from article PMC4620744 (Molecular cell, 2015).
